Source: patent publication US20260275324A1, “UNNATURAL AMINO ACID IN CELLULO SYNTHESIS FOR SITE-SPECIFIC PROTEIN MODIFICATION” (The Chinese University of Hong Kong, priority 2023, published 2026)

Molecular target: GST-CDK4 (Sino Biological) (UniProt P11802)
Assay: microscale thermophoresis (MST); Alexa Fluor 647-labelled MBP-P16p at 70 nM, GST-CDK4 titrated from 3.84 µM

MBP-P16p (linear counterpart of MBP-cycP16p) (from UniProt P0AEX9 27-392; P42771 83-103) (other; other documents disagree on this pair)
Kd: 0.117 µM
